Measured values as given in ChEMBL document CHEMBL3272314, “Sturcture-activity relationship of daunorubicin and its peptide derivatives” (J Med Chem, 1976).

Legend:
[1] = test system: Salmonidae; assay: Binding affinity to salmon sperm DNA assessed as first order dissociation rate at pH 7.8 by stop-flow technique in presence of 21 mM Na+ ionic strength
Summary of the method: (§1)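 Salmon sperm DNA–drug complex preformed without SDS at 6 μM drug and 0.36 mM DNA P/l. Dissociation was started by mixing with 0.2% SDS and followed at 480 nm by stop-flow at 15°C. Buffers were 10 mM MES at pH 6.2 and 1 mM PIPES at pH 7.8, with Na+ set by NaCl. First-order k (sec⁻¹) was taken from rate plots over ≥2.5 half-lives.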

[2] = test system: Salmonidae; assay: Binding affinity to salmon sperm DNA assessed as first order dissociation rate at pH 6.2 by stop-flow technique in presence of 5 mM Na+ ionic strength; summary of the method: as §1
[3] = test system: Salmonidae; assay: Binding affinity to salmon sperm DNA assessed as first order dissociation rate at pH 6.2 by stop-flow technique in presence of 21 mM Na+ ionic strength; summary of the method: as §1
[4] = test system: Salmonidae; assay: Binding affinity to salmon sperm DNA assessed as first order dissociation rate at pH 7.8 by stop-flow technique in presence of 1 mM Na+ ionic strength; summary of the method: as §1
[5] = test system: Salmonidae; assay: Binding affinity to salmon sperm DNA assessed as first order dissociation rate at pH 7.8 by stop-flow technique in presence of 201 mM Na+ ionic strength; summary of the method: as §1

| Compound | K [1] | K [2] | K [3] | K [4] | K [5] |
| --- | --- | --- | --- | --- | --- |
| COc1cccc2c1C(=O)c1c(O)c3c(c(O)c1C2=O)C[C@@](O)(C(C)=O)C[C@@H]3O[C@H]1C[C@H](NC(=O)CNC(=O)CN(C)C)[C@H](O)[C@H](C)O1 | 5.92 s⁻¹ | 2.83 s⁻¹ | 4.72 s⁻¹ | 3.09 s⁻¹ | 15.4 s⁻¹ |
| CCCN(CCC)CC(=O)N[C@H]1C[C@H](O[C@H]2C[C@](O)(C(C)=O)Cc3c(O)c4c(c(O)c32)C(=O)c2c(OC)cccc2C4=O)O[C@@H](C)[C@H]1O | 8.22 s⁻¹ | 5.14 s⁻¹ | 6.63 s⁻¹ | 2.96 s⁻¹ | 17 s⁻¹ |
| COc1cccc2c1C(=O)c1c(O)c3c(c(O)c1C2=O)C[C@@](O)(C(C)=O)C[C@@H]3O[C@H]1C[C@H](NC(=O)CN(C)C)[C@H](O)[C@H](C)O1 | 4.8 s⁻¹ | 2.32 s⁻¹ | 3.51 s⁻¹ | 2.7 s⁻¹ | 11.7 s⁻¹ |
